Test results as given in patent US5849326A, “Method for treating neuronal diseases via administration of 2-acylaminopropanol derivatives” (Seikagaku Corporation, priority 1993, dated 1998).

test: in vivo; settings: mouse, ip

**Q.** Which LD50 does the source give for `CCCCCCCCCC(=O)N[C@H](CN1CCOCC1)[C@@H](O)c1ccccc1` (relative stereo) [DL-erythro-PDMP, 1-phenyl-2-decanoylamino-3-morpholino-1-propanol] here?
**A.** ~700 mg/kg

**Q.** For `CCCCCCCCCC(=O)N[C@H](CN1CCOCC1)[C@H](O)c1ccccc1` (relative stereo) [DL-threo-PDMP, 1-phenyl-2-decanoylamino-3-morpholino-1-propanol], which LD50 is on record?
**A.** ~250 mg/kg

**Q.** For `CCCCCCCCCC(=O)N[C@@H](CN1CCOCC1)[C@@H](O)c1ccccc1` [L-threo-PDMP, 1-phenyl-2-decanoylamino-3-morpholino-1-propanol], which LD50 is on record?
**A.** 350 mg/kg
